Data from ChEMBL document CHEMBL4270567, “Multi-target-directed ligands for treating Alzheimer's disease: Butyrylcholinesterase inhibitors displaying antioxidant and neuroprotective activities” (Eur J Med Chem, 2018).

Chains of the proteins cited; added tags and fusions are not shown.
UniProt P06276, whole entry: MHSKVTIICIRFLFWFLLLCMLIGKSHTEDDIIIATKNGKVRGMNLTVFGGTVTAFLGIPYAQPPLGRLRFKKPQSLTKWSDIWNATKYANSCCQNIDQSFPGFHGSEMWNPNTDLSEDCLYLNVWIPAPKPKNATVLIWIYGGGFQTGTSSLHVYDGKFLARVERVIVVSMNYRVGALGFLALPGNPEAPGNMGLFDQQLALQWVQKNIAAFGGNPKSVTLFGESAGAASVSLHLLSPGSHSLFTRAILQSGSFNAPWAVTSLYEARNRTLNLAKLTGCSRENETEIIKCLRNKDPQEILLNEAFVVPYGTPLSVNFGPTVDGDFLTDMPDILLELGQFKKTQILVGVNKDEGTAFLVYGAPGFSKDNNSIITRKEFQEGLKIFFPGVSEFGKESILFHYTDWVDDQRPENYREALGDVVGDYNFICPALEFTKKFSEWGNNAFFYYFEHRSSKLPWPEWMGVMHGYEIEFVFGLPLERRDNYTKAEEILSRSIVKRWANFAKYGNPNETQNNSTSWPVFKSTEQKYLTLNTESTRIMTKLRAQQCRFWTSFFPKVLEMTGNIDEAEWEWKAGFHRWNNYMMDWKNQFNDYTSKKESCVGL

What was measured:
Cholinesterase [1] = molecular target: T1, Cholinesterase (Homo sapiens, UniProt P06276)
Cholinesterase [2] = molecular target: T1, Cholinesterase; test: Competitive inhibition of human BChE using butyrylthiocholine iodide as substrate preincubated for 5 mins followed by substrate addition and measured for 1 min by Lineweaver Burk plot analysis

How did the IC50 (Cholinesterase [1]) turn out when `CN(C)CCN(CC1CCCN(C2Cc3ccccc3C2)C1)C(=O)c1ccc2cccnc2c1O` (racemic) was run?
The IC50 was 13.8 nM.

And the Ki (Cholinesterase [2])?
Its Ki is 1.71 nM.
